Patent US20040258668A1 (priority 2001, published 2004)

Test system: SeV viral proteins (M, NP)
Experiment: Western blotting of viral proteins (anti-M antibody, DN-1 antibody)
Conditions: aspirin added two days after infection; media every two days, cells six days after addition

## CC(=O)Oc1ccccc1C(=O)O [aspirin, acetylsalicylic acid]
  viral proteins in cultured media and infected cells: viral proteins in the cultured media and in infected cells were both reduced
